For this assay, the target named is human neutrophil cathepsin G (Homo sapiens, UniProt P08311). Put plainly: Enzyme-catalyzed hydrolysis assay, cathepsin G (chromogenic substrate Suc-Ala-Ala-Pro-Phe-pNa). As to conditions: read-out: IC50 (μM) CatG; 70 nM enzyme, 5 mM substrate, pH 7.4, 37° C., 30 minutes.

Sequences of proteins named here, by UniProt entry; tags and fusion partners are left off. Residues count along the entry.
UniProt P08311, 21-243 limits assumed: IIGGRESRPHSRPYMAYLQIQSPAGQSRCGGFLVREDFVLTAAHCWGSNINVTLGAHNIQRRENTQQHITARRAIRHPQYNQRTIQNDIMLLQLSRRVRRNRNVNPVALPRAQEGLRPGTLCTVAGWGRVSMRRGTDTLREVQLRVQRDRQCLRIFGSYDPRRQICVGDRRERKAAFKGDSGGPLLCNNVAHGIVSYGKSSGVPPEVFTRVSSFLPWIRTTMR

One may read the IC50 as the concentration that inhibits the measured activity by half.

As for `O=C(c1cc2ccccc2cc1C(=O)N1CCN(c2ccc(F)cc2)CC1)C(c1cccc2ccccc12)P(=O)(O)O` (centres unmarked), the concentration for half-maximal inhibition (IC50) is 0.52 µM.
Then `O=C(c1cc2ccccc2cc1C(=O)N1CCN(c2ccc(O)cc2)CC1)C(c1cccc2ccccc12)P(=O)(O)O` (centres unmarked), with 0.18 µM.

Source of the values: patent publication US8703957B2 (Janssen Pharmaceutica NV, priority 2001, dated 2014).
